# Measured values as given in publication PMC12068008 (International Journal of Molecular Sciences, 2024).
# Assay: physchem
# Assay type: physicochemical
# Conditions: shake flask, n-octanol/water, 25 °C, 1 × 10^−4 M; read-out: logP, experimentally obtained
# Procedure: To measure the lipophilicity (expressed as the partition coefficient) of the synthesized compounds and their constituents, using a “shake-flask” method, a two-phase system composed of n-octanol and deionized water was used. The stock solutions of the compounds were diluted with water to the concentration of 1 × 10^−4 M, and this solution was used for further investigation. […] The concentration of the compounds was calculated from their extinction coefficient at 260 nm that was previously determined.
structure (smiles),measurement,value
"O=c1c(O)c(-c2ccc(O)c(O)c2)oc2cc(O)cc(O)c12 [Quercetin, reference compound]",logP at 30 min,1.6
